# Shown are actives, neighbours in structure and some others; about 0.92% of the full set was active somewhere.
# miR-21 reporter = miR-21 reporter, rising signal | HeLa miR-21 FLuc reporter, luciferase, 48 h | Potency, µM (top dose mostly 38.3 µM), inactives show at the top dose reporter change, positive = more light | 340,000 tested, under 10 active | AID 2288; active = well fitted rising curve with a large enough effect; inconclusive = small, poorly fitted or top-dose-only effect; inactive = no such curve, though single readings can be large or run the other way;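 further: % of control where 0% means no effect; miR-21 action dims this reporter so a rising signal means less miR-21 action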
#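 Compounds were titrated across several concentrations (up to approximately 40 uM) and incubated 48 hours with HeLa miR-21-FLuc reporter cells (miR-21 target sequence downstream of FLuc, endogenous miR-21). Readout was firefly luciferase luminescence after lytic detection reagent.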
# GALK inhibitor = inhibitors of human galactokinase; Purified GALK, Kinase-Glo residual ATP luminescence; Potency, µM (doses to about 57.5 µM), for inactives: top-dose activity change, negative = inhibition, usual class: inhibitors; actives 0.007% (n = 270,000); AID 1868; note: potency is the fitted concentration of half-maximal effect; % is set by controls: 0 for no effect and ±100 for the full control effect
#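 Human GALK (5 nM) with 35 uM ATP and 100 uM galactose in 20 mM HEPES pH 8.0, 5 mM MgCl2, 60 mM NaCl, 1 mM DTT, 0.01% BSA. After 1 h at room temperature, leftover ATP was read by Kinase-Glo Plus luminescence.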
# FBPA coupling cs = coupling enzyme interference in Giardia aldolase counter-screen; actives 0.67% (n = 290,000); activity change, negative = inhibition, % at 58.2 µM, hits read low; coupling enzyme system counterscreen, AmpLite Red fluorescence; in the data active = activity change below about -30%; note: % is set by controls: 0 for no effect and ±100 for the full control effect
#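 Counterscreen lacking aldolase: glyceraldehyde-3-phosphate coupling-enzyme reagent preincubated 10 min at RT with compound (at 57.5 uM final), then substrate/coupling system with AmpLite Red added; fluorescence read at 525/598 nm after 20 min RT.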
# B2AR arrestin = recruits beta-arrestin to the human beta2-adrenergic receptor. beta-arrestin recruitment to beta2AR, cell-based reporter. Potency, µM (doses to about 46.1 µM), without a hit: top-dose activation, hits mostly activators. AID 492947. actives 0.02% (n = 330,000). P07550;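 note: potency is the fitted concentration of half-maximal effect; 0% = DMSO controls and full agonism = EC100 isoproterenol or metaproterenol; nearly all actives have a fitted effect of over 65% in size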
# Giardia kill = Giardia lamblia killing | activity change, % at 7.66 µM, hits read low | Giardia lamblia trophozoite viability | AID 540267 | actives 0.15% (n = 340,000); in the data active = activity change below about -80%; inconclusive = between about -30% and that limit;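 note: parasites exposed to compound for two days anaerobically before the ATP read; % is set by controls: 0 for no effect and ±100 for the full control effect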
#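 Trophozoite viability was measured as ATP-dependent luminescence, read 15-30 min after reagent addition. Before that, parasites at 100 cells/well were exposed to compounds for 48 h, anaerobically, at 37 deg C.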
# uPA surface inh = blocks generation of uPA at the cell surface; Potency, µM (doses to about 38.3 µM), without a hit: at the top dose activity change, negative = inhibition, most hits filed as inhibitors; cell surface uPA generation assay, qHTS; AID 540303; actives 0.31% (n = 330,000); active = well fitted inhibition curve with a large enough effect; inconclusive = small, poorly fitted or top-dose-only effect; inactive = no such curve, though single readings can be large or run the other way; tested in mouse RAW 264.7 cells; note: potency is the fitted concentration of half-maximal effect; % is set by controls: 0 for no effect and ±100 for the full control effect; nearly all actives have a fitted effect of over 55% in size
# Starred values were filed as active, the others as inactive; ? = inconclusive; nt = not tested or not shown. Unless noted, calls come from the whole dose curve; as a rule, active = well fitted curve in the direction sought with a large enough effect; inconclusive = small, poorly fitted or top-dose-only effect, or another doubt; inactive = no such curve, though single readings can be large; an effect the other way counts as inactive or inconclusive.
SMILES,miR-21 reporter,GALK inhibitor,FBPA coupling cs,B2AR arrestin,Giardia kill,uPA surface inh
CCCN(CCC)C(=O)Cn1c(=O)n(-c2cccc(OC)c2)c(=O)c2c3c(sc21)CCCC3,1%,nt,nt,nt,nt,nt
O=[N+]([O-])c1cc(-c2ncccn2)c([N+](=O)[O-])s1,?,nt,-84*,-1%,9,?
CCN(CC)C(=O)CSc1nnc2nnc3cc(Cl)ccc3n12,2%,5%,-6,0%,-81*,-1%
Cc1cc(Br)c(OCc2ccc(C(=O)N/N=C/c3ccc[nH]3)cc2)c(Br)c1,nt,nt,nt,0%,0,0.18µM*
CC1(C)N([O-])c2cc([N+](=O)[O-])ccc2[N+]1=O,0%,1%,-63*,-1%,6,1%
Cc1ccc(/C=N/NC(=O)CCCOc2ccc(Cl)cc2Cl)cc1,25%,-1%,-11,0%,-19,-9%
O=C(CCCOc1ccc(Cl)cc1Cl)N/N=C/c1ccccc1,1%,-2%,-48*,-1%,7,1%
O=C(O)c1cncc(Br)c1,-10%,-2%,-1,-1%,-11,2%
CN(C)c1cncc(C(=O)O)c1,0%,0%,-55*,0%,17,-22%
Cc1ccc(N/C(C(Cl)=C(Cl)Cl)=C(/Cl)[N+](=O)[O-])c(C)c1,0%,nt,-1,?,-94*,?
COc1ccc(-c2nc3cnc(N4CCOCC4)nc3n(-c3ccc(OC)cc3)c2=O)cc1,nt,nt,-1,nt,nt,nt
O=C(O)c1ccc(-c2c3nc(c(-c4ccc(C(=O)O)cc4)c4ccc([n-]4)c(-c4ccc(C(=O)O)cc4)c4nc(c(-c5ccc(C(=O)O)cc5)c5ccc2[n-]5)C=C4)C=C3)cc1.[Mn+3],nt,nt,-15,nt,nt,nt
CCN(CC(=O)Nc1c(C(=O)OC)[nH]c2ccc(C)cc12)c1ccc2c(c1)OCO2,23%,3%,-38*,0%,-7,4%
Cc1c(C(=O)N(Cc2ccc(Cl)cc2)CC2CCCO2)oc2ccc(F)cc12 (stereo unspecified),-8%,nt,nt,nt,nt,nt
CCOc1ccc(NC(=O)NCc2ccc3c(c2)CCN3C(C)=O)cc1,-7%,nt,nt,nt,nt,nt
O=C1CC(c2ccc3c(c2)OCCO3)Oc2ccccc21 (stereo unspecified),-63%,6%,1,0%,-13,12%
O=C1CC(c2ccc3c(c2)OCCO3)Oc2ccc([N+](=O)[O-])cc21 (stereo unspecified),-65%,-2%,1,0%,?,10µM*
COCCNC(=O)C1CCN(S(=O)(=O)c2ccc3c(c2)CCCN3C(C)=O)CC1,5%,nt,nt,nt,nt,nt
COC1=CC(=O)C=C(OC)C1=O,nt,nt,-81*,nt,-24,?
O=C1C=C(O)c2ccccc2C1=O,nt,nt,-27,nt,nt,nt
COc1ccc(SN=C2C(C)=CC(=O)C=C2C)cc1,5%,17%,3,0%,-18,-18%
COC1=CC(=O)c2ccccc2C1=O,nt,nt,nt,-1%,-16,5µM*
CC(C)OCCCNC(=S)Nc1ccc(S(N)(=O)=O)cc1,-3%,2%,-65*,4%,5,-2%
CC(=O)N(C)C,nt,nt,1,nt,nt,nt
CCN(C(=O)CN1CCN(c2ccc(O)cc2)CC1)c1c(N)n(Cc2ccccc2)c(=O)[nH]c1=O,-3%,-1%,-39*,0%,39,0%

# Record cards (already shown). Order of screens: miR-21 reporter	GALK inhibitor	FBPA coupling cs	B2AR arrestin	Giardia kill	uPA surface inh
# CCN(CC(=O)Nc1c(C(=O)OC)[nH]c2ccc(C)cc12)c1ccc2c(c1)OCO2 is listed as 23%	3%	-38*	0%	-7	4%
# CN(C)c1cncc(C(=O)O)c1 is listed as 0%	0%	-55*	0%	17	-22%
# CCN(C(=O)CN1CCN(c2ccc(O)cc2)CC1)c1c(N)n(Cc2ccccc2)c(=O)[nH]c1=O is listed as -3%	-1%	-39*	0%	39	0%

# Marked active in uPA surface inh (from the list above):
Compound | miR-21 reporter | GALK inhibitor | B2AR arrestin | uPA surface inh
Cc1cc(Br)c(OCc2ccc(C(=O)N/N=C/c3ccc[nH]3)cc2)c(Br)c1 | nt | nt | 0% | 0.18µM*
O=C1CC(c2ccc3c(c2)OCCO3)Oc2ccc([N+](=O)[O-])cc21 (stereo unspecified) | -65% | -2% | 0% | 10µM*
COC1=CC(=O)c2ccccc2C1=O | nt | nt | -1% | 5µM*

# (list continues)
SMILES,miR-21 reporter,GALK inhibitor,FBPA coupling cs,B2AR arrestin,Giardia kill,uPA surface inh
CCN(C(=O)CN1CCCCCC1)c1c(N)n(Cc2ccccc2)c(=O)[nH]c1=O,nt,nt,nt,6%,-7,4%
CC(C)CN(C(=O)CN1CCN(c2ccc(O)cc2)CC1)c1c(N)n(CC(C)C)c(=O)[nH]c1=O,-1%,1%,-32*,-1%,19,3%
O=C(NCCSCc1ccccc1)C1CCN(S(=O)(=O)Cc2ccccc2)CC1,-19%,nt,nt,nt,nt,nt
COc1cccc(C(=O)Nc2nnc(SCC(=O)Nc3ccc(NC(C)=O)cc3)s2)c1,-2%,-5%,nt,-1%,?,2µM*
COc1cccc(N2CC(C(=O)Nc3nnc(SCC(=O)Nc4ccc(NC(C)=O)cc4)s3)CC2=O)c1 (stereo unspecified),0%,-2%,nt,0%,-6,0%
Cc1ccc(N2C(=O)CC(Sc3nc(C)cc(C)n3)C2=O)cc1 (stereo unspecified),13%,0%,-3,0%,14,5µM*
CCOc1ccc(N2C(=O)CC(Sc3nc(C)cc(C)n3)C2=O)cc1 (stereo unspecified),-2%,5%,2,0%,6,9%
Cc1cc(OC(C)C(=O)Nc2cccc(-c3nc4ccccc4o3)c2)cc(C)c1Cl (stereo unspecified),-18%,nt,nt,nt,nt,nt
Cn1c(NC(=O)c2ccc(C(C)(C)C)cc2)cc(=O)n(C)c1=O,-6%,1%,2,0%,-26,-3%
Cn1c(NNC(=O)c2ccc(C(C)(C)C)cc2)cc(=O)n(C)c1=O,-11%,0%,-34*,0%,24,4%
COc1ccc(CNc2ccncc2)c(OC)c1OC,nt,nt,nt,nt,4,0%
COc1cc(NCc2ccc3nc(N)nc(N)c3c2C)cc(OC)c1OC,nt,nt,-46*,nt,nt,nt
COc1cc2c(cc1OC)n(CC(=O)Nc1ccc(C)cc1C)c(=O)n1nc(-c3ccccc3)nc21,-19%,nt,nt,nt,nt,nt
Cc1nc2ccccc2c(=O)n1/N=C/c1ccc2ccccc2c1O,11%,-4%,-32*,3%,23,-17%
Cc1nc2ccccc2c(=O)n1/N=C/c1ccccc1,-13%,-1%,3,-1%,2,-7%
Cc1nc2ccccc2c(=O)n1/N=C/c1ccc(O)c(O)c1O,1%,0%,-45*,0%,-3,-16%
Cc1nc2ccccc2c(=O)n1/N=C/c1ccccc1O,-46%,6%,2,4%,-25,-2%
O=C1c2ccccc2C(=O)N1/N=C/c1ccc(O)c(O)c1O,-6%,-2%,-68*,-1%,-15,1%
CCOc1ccc(CCNC(=O)c2nnc(Cc3cc(OC)c(OC)c(OC)c3)o2)cc1OCC,0%,nt,nt,nt,nt,nt
O=C(NCc1ccc(Cl)cc1)c1cnc2sc(N3CCCCCC3)nn2c1=O,-4%,nt,nt,nt,nt,nt
CCN1CCN(Cc2ccc(NC(=O)c3ccc(C)c(NC(=O)c4nccn4C)c3)cc2C(F)(F)F)CC1,1%,-1%,0,-1%,-20,7%
CCN1CCN(Cc2ccc(NC(=O)c3ccc(C)c(NC(=O)c4cncc(-c5cccs5)c4)c3)cc2C(F)(F)F)CC1,nt,nt,nt,nt,11,1µM*
CCN1CCN(Cc2ccc(NC(=O)c3ccc(C)c(NC(=O)c4cc(-c5ccc(Br)cc5)n[nH]4)c3)cc2C(F)(F)F)CC1,?,0%,-1,-1%,29,13µM*
CCN1CCN(Cc2ccc(NC(=O)c3ccc(C)c(NC(=O)c4nccnc4N)c3)cc2C(F)(F)F)CC1,?,-3%,-7,0%,-7,-12%
CCN(C(=O)c1cn(-c2ccc(OC)cc2)c(=O)c2ccccc12)c1cccc(Cl)c1,18%,nt,nt,nt,nt,nt

# High-throughput results from PubChem.
